Binding of CDR-mutated scFvs to a peptide of the spike HR2 region

The measurements come from Li et al. 2023 (doi:10.1038/s41467-023-39022-2) through the FLAb antibody collection.

Antigen: PDVDLGDISGINAS, a 14-residue peptide of the SARS-CoV-2 spike HR2 region.

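The parent was found by panning a naive human phage display library on the peptide. These sequences belong to a second round, designed from the earlier measurements on random variants of the parent. Their group label is 14H_En_Gibbs (En: ensemble of fine-tuned language models; Gibbs: Gibbs sampling). AlphaSeq pools MATa yeast showing the antibodies with MATalpha yeast showing the peptide. After mating in shaken culture at 30 °C for 16 h, diploids were selected and their barcode pairs sequenced. Read counts were normalised to the haploid input and turned into Kd by a linear fit to BCL2-family pairs of known affinity, for each replicate. The assay was run in six technical replicates.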

The variants keep the light chain, the linker and the frameworks of Ab-14 (scFv order VH, a 15-residue (Gly4Ser)3 linker, VL).
VH: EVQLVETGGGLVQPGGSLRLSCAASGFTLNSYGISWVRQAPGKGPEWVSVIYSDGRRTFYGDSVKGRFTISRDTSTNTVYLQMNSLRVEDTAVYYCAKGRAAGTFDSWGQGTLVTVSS
VL: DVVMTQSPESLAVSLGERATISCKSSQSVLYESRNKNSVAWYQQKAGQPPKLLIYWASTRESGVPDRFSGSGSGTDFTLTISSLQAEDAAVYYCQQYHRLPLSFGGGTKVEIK

Variants are written as CDR1, CDR2 and CDR3 of the heavy chain (limits as in the source). Parent: GFTLNSYGIS, VIYSDGRRTFYGDSVK, GRAAGTFDS. Values are log10 of the apparent Kd in nM; lower means stronger binding. Replicates are averaged; those with no signal do not enter the mean. A pair that was not seen in that replicate is written "n.d."; this usually means weak binding, but a binder can also be missed. Values of this round are not directly comparable with the first-round values of the same sequences.

CDR-H1,CDR-H2,CDR-H3,"replicates, log10 nM",mean log10 Kd (nM),signal with controls
GFDLQEYGIS,VIYADGKRRAYENKVK,GQSGGSVVI,n.d. n.d. n.d. n.d. n.d. n.d.,n.d.,0/18
GFGLSEYGIS,VIYADGMRTSYSNSVK,GALAGTFDE,-1.00 -0.66 -0.63 -0.90 -0.98 -0.88,-0.84,0/18
GFILDEYGIS,VIYADGQRSAYKDSVK,GVDDATGVI,n.d. n.d. n.d. n.d. n.d. n.d.,n.d.,0/18
GADLNEYGIS,VIYADGRRVEYENSFK,GHVAGTFDS,-0.33 0.06 -0.05 -0.35 -0.44 -0.16,-0.21,0/18
GQSLDDYGIS,VIYADGMRKAYVDEVK,GYVAGTFDI,-0.75 -0.65 -0.13 2.00 1.03 0.01,0.25,0/18
GKDLNEQGIS,VIYADGTRTAAANTVK,GEIAGTFKV,n.d. n.d. n.d. n.d. n.d. n.d.,n.d.,0/18
GKALDEYGIS,VIYADGKRTFYSNTVK,GEDGVFYDQ,n.d. n.d. n.d. n.d. n.d. n.d.,n.d.,0/18
GYDLNEYGIS,VIYADGRRAAYIDDVK,GEVNDGVLV,n.d. n.d. n.d. n.d. n.d. n.d.,n.d.,0/18
GFDLEEFGIS,VIYADGRRTQYTANVK,GGKSGDFFM,n.d. n.d. n.d. n.d. n.d. n.d.,n.d.,0/18
EFDLNNYGIS,VIYADGLRTQYETSVK,GDVAGTFDS,0.50 0.53 1.96 0.72 2.77 0.18,1.11,0/18
GFDLQEYGIS,VIYADGTREAYSEKVK,GQLAGYFSF,n.d. n.d. n.d. n.d. n.d. n.d.,n.d.,0/18
GFDLMEYGIS,VIYADGQRQVYQDNVK,GGDAVLNIV,n.d. n.d. n.d. n.d. n.d. n.d.,n.d.,0/18
GFNINEYGIS,VIYADGQRLSYDDKVK,GNITGTFNS,0.86 1.63 0.22 -0.20 0.30 0.41,0.54,0/18
KFDIEHYGIS,VIYADGKRSGYSNAVK,GQQAGTFNT,0.84 0.02 0.03 -0.06 -0.17 0.55,0.20,0/18
GFDLDEEGIS,VIYADGSRTAYSDNVK,GGFDIKVIV,n.d. n.d. n.d. n.d. n.d. n.d.,n.d.,0/18
GEDLLEYGIS,VIYADGSRVAYTNAVK,GNLAGAFDV,n.d. n.d. n.d. n.d. n.d. 1.67,1.67,0/18
GFDLQEYGVS,VIYADGVRSAYIDSVK,GRVTIGYLD,n.d. n.d. n.d. n.d. n.d. n.d.,n.d.,0/18
GFDLAEYGIS,VIYADGSRTAYNQNVK,GLKGDSFDI,n.d. n.d. n.d. 2.07 n.d. n.d.,2.07,0/18
GFDLGEYGIS,VIYADGMRSAYTDKVK,GAGANIVTH,n.d. n.d. n.d. n.d. n.d. n.d.,n.d.,0/18
GFGIEEYGIS,VIYADGQRNAYADEVK,GENAGTFDI,-0.14 0.28 0.20 -0.16 -0.26 0.16,0.01,0/18
GFDLMEYGIS,VIYADGVRTAYQDDVK,GQEAGFLYT,n.d. 1.66 n.d. n.d. n.d. n.d.,1.66,0/18
GFLLDEYGIS,VIYADGQRTAYTDDVK,GQYGGIGTI,n.d. n.d. n.d. n.d. n.d. n.d.,n.d.,0/18
GFDINEYGIS,VIYADGMRRAYAQQVK,GHGEVVSMD,n.d. n.d. n.d. n.d. n.d. n.d.,n.d.,2/18 (2.22)
GMDLENYGIS,VIYADGKRKAYAQKFK,GHTGGTFAD,n.d. 2.67 1.13 0.86 2.18 1.51,1.67,0/18
GFDLNEYGVS,VIYADGMRRAYAANFK,GVTAGGLGI,n.d. n.d. n.d. n.d. n.d. n.d.,n.d.,0/18
GEDLDEYGVS,VIYADGRKQSYSNSVK,GAIAGNFDA,n.d. n.d. n.d. n.d. n.d. n.d.,n.d.,0/18
GFDVDEFGIS,VIYADGHRTSYAADVK,GSQVGNGLV,2.00 1.57 1.24 1.45 1.51 3.09,1.81,1/18 (2.10)
GFNLDEYGIS,VIYADGYRRAYAQSVK,GYNSSLGVT,n.d. n.d. n.d. n.d. n.d. n.d.,n.d.,1/18 (1.32)
DFNLNEYGIS,VIYADGQRASYLDKVK,GQISGTFDT,n.d. n.d. n.d. n.d. n.d. n.d.,n.d.,0/18
GEDLQEYGIS,VIYADGQRQEYSDDVK,GQVAGHFLV,n.d. n.d. 2.82 n.d. n.d. n.d.,2.82,0/18
GFNLNEYGIS,VIYADGKRYEYTDSVK,SGVVGKVLY,n.d. n.d. n.d. n.d. n.d. n.d.,n.d.,0/18
GFNLDEYGIS,VIYADGQRTAYAQHVK,GTGGMGRGV,n.d. n.d. n.d. n.d. n.d. n.d.,n.d.,0/18
GNSLDEYGIS,VIYADGMRTAYTDAVK,GVGSNTLVD,n.d. n.d. n.d. n.d. n.d. n.d.,n.d.,1/18 (2.19)
GFDIQEYGIS,VIYADGMRVAYTNSVK,GTQGGSNIE,n.d. n.d. n.d. n.d. n.d. n.d.,n.d.,0/18
GFNIDEYGIS,VIYADGMRTFYSNAVK,GVVNGGTIS,n.d. n.d. n.d. n.d. n.d. n.d.,n.d.,0/18
GFDINEYGVS,VIYADGMRSYYAGKVK,GSNGALFDV,n.d. n.d. n.d. n.d. n.d. n.d.,n.d.,1/18 (1.54)
GADLNEYGIS,VIYADGSRVEYENKFK,GDVAGTFDS,0.60 1.06 2.29 0.36 0.84 0.60,0.96,0/18
GFDLQEYGIS,VIYADGKRTAYIQKVK,GYIVGGQFD,n.d. n.d. n.d. n.d. n.d. n.d.,n.d.,0/18
GKSLDEYGIS,VIYADGMRKEYTDSVK,GQFDDGMDL,1.33 n.d. n.d. n.d. n.d. n.d.,1.33,0/18
GFDLQELGIS,VIYADGTRQAYSEKVK,GQLAGFLVD,n.d. n.d. n.d. n.d. n.d. n.d.,n.d.,0/18
GYDMEDYGIS,VIYADGVRQFYHDNFK,GQLAGTFLL,n.d. n.d. n.d. 3.33 n.d. n.d.,3.33,0/18

For reference, 2 entries of the list once more:

| CDR-H1 | CDR-H2 | CDR-H3 | replicates, log10 nM | mean log10 Kd (nM) | signal with controls |
|---|---|---|---|---|---|
| GFDLQEYGIS | VIYADGTREAYSEKVK | GQLAGYFSF | n.d. n.d. n.d. n.d. n.d. n.d. | n.d. | 0/18 |
| GADLNEYGIS | VIYADGSRVEYENKFK | GDVAGTFDS | 0.60 1.06 2.29 0.36 0.84 0.60 | 0.96 | 0/18 |

Background: pairings of all heavy chain designs with three empty control strains gave a value in 1% of cases (median 2.08, 5th percentile 0.84). Values in that range, when seen in few replicates, are hard to tell from nonspecific mating. The control count says in how many pairings with the empty strains this scFv gave a signal, with their mean in brackets. In the paper, a design with two or fewer of six values counts as a poor binder.